Assay results: patent publication USRE39616E1, “Aminoindan derivatives” (priority 1996, dated 2007)
Where two headings read alike, the source gives them in different places.

Sequences of proteins named here, by UniProt entry; tags and fusion partners are left off. Residues count along the entry.
UniProt P21396, whole entry: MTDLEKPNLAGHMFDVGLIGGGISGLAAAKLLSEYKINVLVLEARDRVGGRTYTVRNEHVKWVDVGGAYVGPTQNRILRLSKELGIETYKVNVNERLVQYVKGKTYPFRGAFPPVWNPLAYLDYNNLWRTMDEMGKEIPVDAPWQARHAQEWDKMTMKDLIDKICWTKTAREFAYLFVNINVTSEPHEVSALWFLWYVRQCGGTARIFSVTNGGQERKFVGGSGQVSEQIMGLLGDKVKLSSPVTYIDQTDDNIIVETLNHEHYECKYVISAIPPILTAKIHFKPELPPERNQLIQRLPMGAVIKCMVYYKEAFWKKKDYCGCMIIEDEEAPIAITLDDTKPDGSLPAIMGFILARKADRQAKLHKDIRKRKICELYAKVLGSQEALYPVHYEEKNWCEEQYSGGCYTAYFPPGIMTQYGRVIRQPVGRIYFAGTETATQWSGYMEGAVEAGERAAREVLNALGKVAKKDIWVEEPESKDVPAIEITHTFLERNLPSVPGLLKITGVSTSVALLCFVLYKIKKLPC
UniProt P22303, 32-617 isoform 2 limits assumed: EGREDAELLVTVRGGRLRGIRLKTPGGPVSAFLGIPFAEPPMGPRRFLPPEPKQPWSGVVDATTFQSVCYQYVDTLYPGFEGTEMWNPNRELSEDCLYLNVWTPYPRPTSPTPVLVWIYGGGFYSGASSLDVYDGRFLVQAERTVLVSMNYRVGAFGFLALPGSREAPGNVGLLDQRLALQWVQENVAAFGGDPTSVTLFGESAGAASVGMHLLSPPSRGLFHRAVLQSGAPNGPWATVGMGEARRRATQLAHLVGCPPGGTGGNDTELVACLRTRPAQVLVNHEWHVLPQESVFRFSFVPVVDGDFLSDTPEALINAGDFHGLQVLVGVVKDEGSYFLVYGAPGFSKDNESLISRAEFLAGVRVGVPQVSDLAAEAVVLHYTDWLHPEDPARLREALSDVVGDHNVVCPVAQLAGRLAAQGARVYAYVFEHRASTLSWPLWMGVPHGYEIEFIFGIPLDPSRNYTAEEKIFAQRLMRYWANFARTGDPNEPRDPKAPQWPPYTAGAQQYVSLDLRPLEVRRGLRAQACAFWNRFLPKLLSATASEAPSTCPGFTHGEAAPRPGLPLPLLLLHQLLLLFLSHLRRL
UniProt Q64133, whole entry: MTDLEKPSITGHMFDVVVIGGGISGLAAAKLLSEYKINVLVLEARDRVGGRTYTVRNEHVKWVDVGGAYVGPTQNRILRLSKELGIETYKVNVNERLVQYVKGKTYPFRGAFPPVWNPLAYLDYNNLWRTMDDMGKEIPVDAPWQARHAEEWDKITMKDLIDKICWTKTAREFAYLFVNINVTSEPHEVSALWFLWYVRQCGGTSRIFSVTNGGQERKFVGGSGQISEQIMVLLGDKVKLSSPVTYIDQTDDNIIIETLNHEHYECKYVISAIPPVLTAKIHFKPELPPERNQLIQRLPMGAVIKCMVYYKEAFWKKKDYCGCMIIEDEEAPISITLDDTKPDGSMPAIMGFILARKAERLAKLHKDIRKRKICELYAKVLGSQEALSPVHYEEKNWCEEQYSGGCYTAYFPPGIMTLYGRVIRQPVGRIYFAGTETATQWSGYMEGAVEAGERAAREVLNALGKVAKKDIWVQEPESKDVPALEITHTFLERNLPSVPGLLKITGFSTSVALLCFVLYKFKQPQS
UniProt Q8BW75, whole entry: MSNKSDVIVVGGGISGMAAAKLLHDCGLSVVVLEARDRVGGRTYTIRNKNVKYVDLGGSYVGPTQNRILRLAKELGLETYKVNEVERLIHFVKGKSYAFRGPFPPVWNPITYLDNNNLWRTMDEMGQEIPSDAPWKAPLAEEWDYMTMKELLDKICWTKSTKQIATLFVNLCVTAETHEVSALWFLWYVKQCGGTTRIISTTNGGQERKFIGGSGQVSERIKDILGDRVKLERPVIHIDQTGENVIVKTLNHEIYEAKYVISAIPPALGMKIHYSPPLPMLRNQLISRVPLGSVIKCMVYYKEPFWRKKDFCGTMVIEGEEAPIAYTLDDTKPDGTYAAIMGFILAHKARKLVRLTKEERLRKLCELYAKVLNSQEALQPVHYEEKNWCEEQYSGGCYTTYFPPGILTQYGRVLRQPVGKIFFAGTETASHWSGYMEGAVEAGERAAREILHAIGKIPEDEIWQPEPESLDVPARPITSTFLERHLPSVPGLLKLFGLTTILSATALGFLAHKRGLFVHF
UniProt P21836, 32-614 limits assumed: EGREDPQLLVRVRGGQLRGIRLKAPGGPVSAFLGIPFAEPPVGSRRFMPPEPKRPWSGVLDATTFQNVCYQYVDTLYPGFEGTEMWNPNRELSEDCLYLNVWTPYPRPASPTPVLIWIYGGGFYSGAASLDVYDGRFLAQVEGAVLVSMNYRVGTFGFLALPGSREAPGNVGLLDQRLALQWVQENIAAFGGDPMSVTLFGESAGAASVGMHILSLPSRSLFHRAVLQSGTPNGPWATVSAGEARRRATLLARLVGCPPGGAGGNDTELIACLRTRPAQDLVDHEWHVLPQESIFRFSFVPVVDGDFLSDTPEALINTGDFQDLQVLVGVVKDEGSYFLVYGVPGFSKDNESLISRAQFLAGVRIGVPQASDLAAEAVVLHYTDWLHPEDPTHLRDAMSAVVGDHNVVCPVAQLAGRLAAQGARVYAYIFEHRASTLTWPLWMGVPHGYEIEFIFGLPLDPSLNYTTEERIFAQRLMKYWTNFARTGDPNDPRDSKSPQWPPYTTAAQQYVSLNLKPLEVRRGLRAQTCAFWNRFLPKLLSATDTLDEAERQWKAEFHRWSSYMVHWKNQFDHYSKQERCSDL
UniProt P19643, whole entry: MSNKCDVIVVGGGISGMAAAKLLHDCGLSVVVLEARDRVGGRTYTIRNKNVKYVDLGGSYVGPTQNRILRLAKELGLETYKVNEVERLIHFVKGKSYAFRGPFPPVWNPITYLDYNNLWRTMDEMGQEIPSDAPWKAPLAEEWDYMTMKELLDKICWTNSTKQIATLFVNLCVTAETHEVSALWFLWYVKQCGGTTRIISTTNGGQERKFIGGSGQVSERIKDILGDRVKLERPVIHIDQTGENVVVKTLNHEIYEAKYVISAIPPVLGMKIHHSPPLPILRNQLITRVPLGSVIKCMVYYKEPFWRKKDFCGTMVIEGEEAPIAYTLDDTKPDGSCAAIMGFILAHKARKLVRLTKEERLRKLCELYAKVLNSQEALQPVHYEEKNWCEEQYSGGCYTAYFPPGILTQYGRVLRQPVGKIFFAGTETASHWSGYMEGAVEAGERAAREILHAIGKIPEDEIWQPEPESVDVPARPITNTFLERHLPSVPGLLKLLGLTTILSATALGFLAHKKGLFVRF

Experiments:
MAO-A [1] = molecular target: T1, MAO-A (Rattus norvegicus, UniProt P21396); settings: rats, tested form: HCl; for selectivity of MAO inhibition, brain versus periphery (liver, intestines): daily for 14 days, sc and/or po, MAO-A and MAO-B (Table 11a)
[2] = molecular target: Human erythrocyte acetylcholinesterase (Homo sapiens, UniProt P22303); settings: read-out: AChE Inhibition In vitro IC50
MAO-A [3] = molecular target: MAO-A (Mus musculus, UniProt Q64133); experiment: Inhibition of MAO activity ex vivo (brain); assay type: in vivo; settings: mice, brain tissue; tested form: HCl
MAO-B [4] = molecular target: MAO-B (Mus musculus, UniProt Q8BW75); experiment: Inhibition of MAO activity ex vivo (brain); assay type: in vivo; settings: mice, brain tissue; tested form: HCl
[5] = test system: Closed Head Injury (CHI) in Mice; settings: mice after CHI; 30 mg/kg; retested daily for 2 weeks; FIG. 3; tested form: HCl
whole brain AChE = whole brain AChE (Mus musculus, UniProt P21836); settings: tested form: HCl; for AChE Inhibition Ex vivo ED50 (AC): mice, whole brain, at peak of activity; for AChE Inhibition Time to peak activity t: mouse, in vivo
MAO-B [6] = molecular target: T2, MAO-B (Rattus norvegicus, UniProt P19643); experiment: Inhibition of MAO activity in vitro, PEA as substrate; assay type: biochemical; settings: read-out: MAO-B Inhibition In vitro IC50, rat brain homogenate, tested form: HCl
[7] = test system: Closed Head Injury (CHI) in Mice; experiment: Closed Head Injury (CHI) in mice: motor function, neurological severity score (NSS); assay type: in vivo; settings: 30 mg/kg sc once 15 min after CHI, difference from NSS at 1 hr, tested form: HCl
MAO-B [8] = molecular target: T2, MAO-B; experiment: Inhibition of MAO activity following sub-acute administration to rats; assay type: in vivo; settings: tested form: HCl
MAO-A [9] = molecular target: T1, MAO-A; experiment: Inhibition of MAO activity in vitro, 5-HT as substrate; assay type: biochemical; settings: read-out: MAO-A Inhibition In vitro IC50; rat brain homogenate, 5-HT substrate; tested form: HCl
[10] = Brain, sc, 40 mg/kg daily for 14 days
[11] = Intestine, sc, 40 mg/kg daily for 14 days
[12] = Liver, sc, 40 mg/kg daily for 14 days
[13] = Brain, po, 45 mg/kg daily for 14 days
[14] = Intestine, po, 45 mg/kg daily for 14 days
[15] = Intestine, sc, 45 mg/kg daily for 14 days
[16] = Liver, po, 45 mg/kg daily for 14 days
[17] = Liver, sc, 45 mg/kg daily for 14 days

Row | Structure (SMILES) | selectivity of MAO inhibition, brain versus periphery (liver, intestines) (MAO-A [1]) | IC50 ([2]; tested form: HCl) [µM] | MAO-A Inhibition Ex vivo ED50 (MAO-A [3]) | MAO-B Inhibition Ex vivo ED50 (MAO-B [4]) | reduction in latency to find the platform, Morris Water Maze, compared to saline treated controls [5] | AChE Inhibition Ex vivo ED50 (AC) (whole brain AChE) [µmol/kg] | AChE Inhibition Time to peak activity t (whole brain AChE) [min] | IC50 (MAO-B [6]) [µM] | ΔNSS, 24 hr post-CHl [7] | ΔNSS, 7 days post-CHl [7] | ΔNSS, 14 days post-CHl [7] | also measured
1 | C#CCN[C@H]1CCc2ccc(OC(=O)N(C)CC)cc21 | selectivity in inhibiting MAO enzyme sub-types in the brain in preference to the periphery | 36 | >>200 μmoles/kg | >>200 μmoles/kg | Memory is enhanced | 80 | 30 to 60 | 1000 | 5.36 ± 0.25 | 6.71 ± 0.45 | 7.64 ± 0.48 | % MAO-A inhibition (MAO-A [1]; [10]): 17%; % MAO-A inhibition (MAO-A [1]; [11]): 0%; % MAO-A inhibition (MAO-A [1]; [12]): 0%; % MAO-B inhibition (MAO-B [8]; [10]): 27%; % MAO-B inhibition (MAO-B [8]; [11]): 40%; % MAO-B inhibition (MAO-B [8]; [12]): 0%
2 | C#CCNC1CCc2cc(Cl)c(OC(=O)N(C)CC)cc21 (centres unmarked) |  | 29 | >100 µmol/kg | 130 µmol/kg |  | >100 |  |  |  |  |  | 
3 | C#CCNC1CCc2cc(Cl)c(OC(=O)N(C)CCC)cc21 (centres unmarked) |  | 38 | >100 µmol/kg | >100 µmol/kg |  | >200 |  |  |  |  |  | 
4 | C#CCNC1CCc2ccc(OC(=O)N(C)CC)cc21 (centres unmarked) |  |  |  |  |  |  |  |  |  |  |  | IC50 ([2]; tested form: mesylate): 51 µM
5 | C#CCN[C@@H]1CCc2ccc(OC(=O)N(C)CCC)cc21 |  | 10 | >>450 μmoles/kg | 450 µmol/kg |  | 101 | 60 to 90 |  |  |  |  | 
6 | C#CCN[C@@H]1CCc2ccc(OC(=O)N(C)CC)cc21 | selectivity in inhibiting MAO enzyme sub-types in the brain in preference to the periphery | 51 | >200 µmol/kg | 200 µmol/kg | Memory is enhanced | 125 |  | 500 | 5.50 ± 0.26 | 6.92 ± 0.38 | 8.25 ± 0.62 | % MAO-A inhibition (MAO-A [1]; [13]): 67%; % MAO-A inhibition (MAO-A [1]; Brain, sc, 45 mg/kg daily for 14 days): 78%; % MAO-A inhibition (MAO-A [1]; [14]): 0%; % MAO-A inhibition (MAO-A [1]; [15]): 0%; % MAO-A inhibition (MAO-A [1]; [16]): 28%; % MAO-A inhibition (MAO-A [1]; [17]): 0%; IC50 (MAO-A [9]): 750 µM; % MAO-B inhibition (MAO-B [8]; [13]): 82%; % MAO-B inhibition (MAO-B [8]; [14]): 21%; % MAO-B inhibition (MAO-B [8]; [15]): 26%; % MAO-B inhibition (MAO-B [8]; [16]): 28%; % MAO-B inhibition (MAO-B [8]; [17]): 29%
